Test results taken from PubChem BioAssay AID2777 (Johns Hopkins Ion Channel Center, 2010).
Only a part is listed here, and it is no random draw. The source made the active and inactive calls.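 The calls were made as follows: active = rise or fall in signal beyond 3 SD of buffer-only wells in both replicate plates, either sign; inactive = the rest.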

Each compound was assayed on transient receptor potential cation channel C4 (TRPC4), mouse (assay: membrane potential change in TRPC4 cells – cell-based, HEK293 TRPC4/mu-opioid, membrane potential dye, selectivity assay for TRPC6 inhibitor project, confirmation (AID 2777;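 also: integrated kinetic ratio of fluorescence range over baseline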)). Conditions: membrane potential fluorescence, at 10 µM.

`CN(C)CCOC(=O)C(O)(c1ccccc1)C1CCCC1` (stereo not given) was tested. Which activity change, negative = inhibition did it give?
The activity change, negative = inhibition was active: 0.07%.

For `CCN(CC)CCCOC(=O)C(O)(c1ccccc1)C1CCCCC1` (stereo not given), which activity change, negative = inhibition is on record?
The activity change, negative = inhibition was active: 18.3%.

For `CCOC(=O)c1ccc(NP(C)(=O)Oc2ccc(Cl)cc2)cc1` (stereo not given), which outcome is on record?
Its outcome is “inactive”.

How did the activity change, negative = inhibition turn out when `O=C(OCCCN1CCCC1)C(O)(c1ccccc1)C1CCCCC1` (stereo not given) was run?
Its activity change, negative = inhibition is active: 17.8%.

`CN(C)CCOC(=O)C(O)(c1ccccc1)C1CCCCC1` (stereo not given) was tested. Which activity change, negative = inhibition did it give?
The activity change, negative = inhibition was active: 5.55%.
